Experimental data reported in US7825132B2, “Inhibition of FGFR3 and treatment of multiple myeloma” (Novartis Vaccines and Diagnostics, Inc., priority 2002, dated 2010).

How the values were obtained:
OPM-2 cells = details: Grand et al., Leukemia 2004; cited from earlier work
K562 (CML) = assay: cells; details: Homo sapiens
Ku812 (CML) = assay: cells; details: Homo sapiens
[1] = test system: MDA-MB435 (breast cancer); assay: cells; details: Homo sapiens, MDA-MB-435
[2] = test system: FGF-2 supplemented Matrigel neovascularization; details: 100 mg/kg
[3] = test system: PrC (normal prostate epithelium); assay: cells; details: Homo sapiens
SKOV3 (ovarian cancer) = assay: cells; details: Homo sapiens, SK-OV-3
[4] = test system: HMEC (normal mammary epithelium); assay: cells; details: Homo sapiens
HCT116 (colon cancer) = assay: cells; details: Homo sapiens, HCT-116
Du145 (prostate cancer) = assay: cells; details: Homo sapiens, DU-145
H209 (lung cancer) = assay: cells; details: Homo sapiens, NCI-H209
ARH77 (multiple myeloma) = assay: cells; details: Homo sapiens, ARH-77
H226 (lung cancer) = assay: cells; details: Homo sapiens, NCI-H226
HT29 (colon cancer) = assay: cells; details: Homo sapiens, HT-29
MOLT-4 (ALL) = assay: cells; details: Homo sapiens
SW620 (colon cancer) = assay: cells; details: Homo sapiens, SW-620
[5] = test system: 4T1 (mouse breast cancer); assay: cells

Molecule	cytotoxic response / apoptosis in OPM2 cells (OPM-2 cells)	EC50 (K562 (CML)) [µM]	EC50 (Ku812 (CML)) [µM]	EC50 [1] [µM]	% Hb inhibition vs. Vehicle treatment of Matrigel + FGF [2] [%]	EC50 [3] [µM]	EC50 (SKOV3 (ovarian cancer)) [µM]	EC50 [4] [µM]	EC50 (HCT116 (colon cancer)) [µM]	EC50 (Du145 (prostate cancer)) [µM]	EC50 (H209 (lung cancer)) [µM]	EC50 (ARH77 (multiple myeloma)) [µM]	EC50 (H226 (lung cancer)) [µM]	EC50 (HT29 (colon cancer)) [µM]	EC50 (MOLT-4 (ALL)) [µM]	EC50 (SW620 (colon cancer)) [µM]	EC50 [5] [µM]
SU5402	induced cytotoxic responses	–	–	–	–	–	–	–	–	–	–	–	–	–	–	–	–
CN1CCN(c2ccc3nc(-c4c(N)c5c(F)cccc5[nH]c4=O)[nH]c3c2)CC1 [Compound 1]	–	1 to 10	1 to 10	1 to 10	80	1 to 10	1 to 10	1 to 10	1 to 10	1 to 10	1 to 10	1 to 10	1 to 10	1 to 10	1 to 10	1 to 10	0.4 to 1
